Test results reported in US9115061B2, “Naphthalene-based inhibitors of anti-apoptotic proteins” (BURNHAM INSTITUTE FOR MEDICAL RESEARCH, priority 2007, dated 2015).

Columns and labels:
ZR75-1 cells = experiment: XTT dye reduction assay; format: cell-based, human; settings: read-out: IC50, cell viability ZR75-1, three days
Protocol: The effects of the compounds on viability of tumor cells in culture were monitored by using XTT assays with MCF7 and ZR75-1 cell lines. MCF7 cells were grown in DMEM containing 10% fetal bovine serum, penicillin/streptomycin, supplemented with 10^−10 M insulin, 1 mM sodium pyruvate and glutamine. ZR75-1 cells were grown in RPMI containing 10% fetal bovine serum, penicillin/streptomycin, supplemented with HEPES buffer, 1 mM sodium pyruvate and glutamine. Cells were regularly tested for mycoplasma contamination. Cells were seeded triplicates at an initial cell density of 1,000 cells per well. Blank wells received no cells.
Gossypol, purpurogallin and 5D1 were added at final concentrations of 0, 1, 10 and 100 μM and incubated for three days. Relative numbers of viable cells was determined by XTT assay. Briefly, in a 96-well plate, we added 50 μl of a mixture of 1 mg/ml of XTT (2,3-bis(2-methoxy-4-nitro-5-sulfophenyl)-5-[(phenylamino)carbonyl]-2H-tetrazolium hydroxide) (Polysciences, Washington, Pa.) containing 0.025 mM PMS (phenazine methosulfate) to each well. The 96-well plates were reincubated for an additional 4 hours to allow for XTT formazan production. Then, the contents of each plate were mixed and optical densities were determined at a wavelength of 450 nm (OD450). Net OD450 was determined after subtracting OD450 of blank wells. […]

HeLa cells = HeLa cells viability assay; format: cell-based, human; settings: read-out: IC50 (HeLa); Table 5
Protocol: Relative numbers of viable cells was determined by XTT assay. Briefly, in a 96-well plate, we added 50 μl of a mixture of 1 mg/ml of XTT (2,3-bis(2-methoxy-4-nitro-5-sulfophenyl)-5-[(phenylamino)carbonyl]-2H-tetrazolium hydroxide) (Polysciences, Washington, Pa.) containing 0.025 mM PMS (phenazine methosulfate) to each well. The 96-well plates were reincubated for an additional 4 hours to allow for XTT formazan production. Then, the contents of each plate were mixed and optical densities were determined at a wavelength of 450 nm (OD450). Net OD450 was determined after subtracting OD450 of blank wells. […] Immunoblot analysis of BCL-XL was accomplished as previously described.

Compound | IC50 (ZR75-1 cells) | IC50 (HeLa cells)
CCOC(=O)c1cc(O)c(=O)c2cc(O)c(O)cc2c1 | 50 µM | 
COC(=O)c1cc(O)c(=O)c2cc(O)c(O)cc2c1 |  | 30 µM
